# Reference: ChEMBL document CHEMBL1250514, “Fragment-based drug discovery applied to Hsp90. Discovery of two lead series with high ligand efficiency” (J Med Chem, 2010)
# Sequences of proteins named here, by UniProt entry; tags and fusion partners are left off. A change or cut given only in a name is not applied to a line headed by its entry.
# UniProt P08238: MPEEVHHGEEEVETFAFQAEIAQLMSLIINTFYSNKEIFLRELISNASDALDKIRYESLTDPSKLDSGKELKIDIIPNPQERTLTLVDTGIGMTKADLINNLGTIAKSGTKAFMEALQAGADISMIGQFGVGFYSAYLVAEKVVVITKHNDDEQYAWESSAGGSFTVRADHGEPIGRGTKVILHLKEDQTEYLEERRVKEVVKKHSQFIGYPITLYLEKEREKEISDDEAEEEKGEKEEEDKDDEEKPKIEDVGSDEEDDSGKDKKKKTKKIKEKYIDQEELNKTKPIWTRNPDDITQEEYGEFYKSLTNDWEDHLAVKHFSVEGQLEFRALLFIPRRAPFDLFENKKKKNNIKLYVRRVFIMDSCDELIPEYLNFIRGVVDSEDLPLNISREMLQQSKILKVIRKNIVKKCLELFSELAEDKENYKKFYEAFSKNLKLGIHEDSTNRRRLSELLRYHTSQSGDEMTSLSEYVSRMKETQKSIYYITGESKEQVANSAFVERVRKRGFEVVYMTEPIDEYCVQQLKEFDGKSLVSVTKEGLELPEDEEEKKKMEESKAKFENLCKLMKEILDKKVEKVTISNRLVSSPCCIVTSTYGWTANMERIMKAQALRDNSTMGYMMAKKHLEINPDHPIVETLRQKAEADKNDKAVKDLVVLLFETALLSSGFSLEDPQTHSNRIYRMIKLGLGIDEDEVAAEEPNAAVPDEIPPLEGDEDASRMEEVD
# Target: Heat shock protein HSP90 (Homo sapiens, UniProt P07900+P08238)
structure (smiles),measurement,value
Nc1nc(Cl)cc(-c2cc(OCCN3CCOCC3)c(Cl)cc2Cl)n1,Kd,4.8 nM
